The values below come from BindingDB's records for patent US9062070 (Merck Sharp & Dohme, 2015).

pIC50: −log10 of the molar value.

The test addresses T1, ATP-sensitive inward rectifier potassium channel 1 (Rattus norvegicus, UniProt P35560).
T1 sequence (P35560 whole entry): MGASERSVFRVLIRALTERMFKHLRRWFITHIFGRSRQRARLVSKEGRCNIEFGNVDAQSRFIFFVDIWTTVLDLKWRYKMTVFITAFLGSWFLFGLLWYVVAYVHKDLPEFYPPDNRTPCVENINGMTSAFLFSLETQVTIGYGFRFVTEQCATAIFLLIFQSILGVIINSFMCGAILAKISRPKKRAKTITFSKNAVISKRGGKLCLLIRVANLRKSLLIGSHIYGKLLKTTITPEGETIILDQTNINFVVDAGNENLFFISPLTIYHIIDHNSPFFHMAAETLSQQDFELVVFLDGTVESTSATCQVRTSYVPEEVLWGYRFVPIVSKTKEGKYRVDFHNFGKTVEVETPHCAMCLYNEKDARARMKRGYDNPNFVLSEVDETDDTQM
Put plainly: Electrophysiology Assay. To be noted: pH 7.4.

Usually pIC50 stands for the negative decadic logarithm of the IC50, by convention in mol/L. A lower pIC50 goes with a large IC50. Regarding `C[C@@H]1Cc2cc([C@H]3CN4CCN(C(=O)C5CCc6nc(-n7cnnn7)ccc65)C[C@@H]4CO3)ccc2C(=O)O1` (single isomer, unassigned) [US9062070, 1C], the pIC50 is 7.00.
